Experimental data as given in publication PMC3961306, “Comparison of the Cancer Gene Targeting and Biochemical Selectivities of All Targeted Kinase Inhibitors Approved for Clinical Use” (PLoS ONE, 2014).

By UniProt entry, the sequences of proteins in these tests, tags left out.
UniProt P50750, whole entry, stated change not applied: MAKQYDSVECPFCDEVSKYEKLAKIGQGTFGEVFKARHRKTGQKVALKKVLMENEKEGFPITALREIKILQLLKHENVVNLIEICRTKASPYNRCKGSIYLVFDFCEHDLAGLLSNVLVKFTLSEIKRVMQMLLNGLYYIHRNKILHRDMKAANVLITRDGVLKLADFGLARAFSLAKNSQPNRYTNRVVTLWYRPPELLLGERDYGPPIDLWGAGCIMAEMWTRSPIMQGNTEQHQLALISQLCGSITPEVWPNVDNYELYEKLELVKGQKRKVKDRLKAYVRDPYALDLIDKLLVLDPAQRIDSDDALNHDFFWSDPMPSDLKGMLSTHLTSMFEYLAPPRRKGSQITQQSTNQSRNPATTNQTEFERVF
UniProt Q15418, whole entry, stated change not applied: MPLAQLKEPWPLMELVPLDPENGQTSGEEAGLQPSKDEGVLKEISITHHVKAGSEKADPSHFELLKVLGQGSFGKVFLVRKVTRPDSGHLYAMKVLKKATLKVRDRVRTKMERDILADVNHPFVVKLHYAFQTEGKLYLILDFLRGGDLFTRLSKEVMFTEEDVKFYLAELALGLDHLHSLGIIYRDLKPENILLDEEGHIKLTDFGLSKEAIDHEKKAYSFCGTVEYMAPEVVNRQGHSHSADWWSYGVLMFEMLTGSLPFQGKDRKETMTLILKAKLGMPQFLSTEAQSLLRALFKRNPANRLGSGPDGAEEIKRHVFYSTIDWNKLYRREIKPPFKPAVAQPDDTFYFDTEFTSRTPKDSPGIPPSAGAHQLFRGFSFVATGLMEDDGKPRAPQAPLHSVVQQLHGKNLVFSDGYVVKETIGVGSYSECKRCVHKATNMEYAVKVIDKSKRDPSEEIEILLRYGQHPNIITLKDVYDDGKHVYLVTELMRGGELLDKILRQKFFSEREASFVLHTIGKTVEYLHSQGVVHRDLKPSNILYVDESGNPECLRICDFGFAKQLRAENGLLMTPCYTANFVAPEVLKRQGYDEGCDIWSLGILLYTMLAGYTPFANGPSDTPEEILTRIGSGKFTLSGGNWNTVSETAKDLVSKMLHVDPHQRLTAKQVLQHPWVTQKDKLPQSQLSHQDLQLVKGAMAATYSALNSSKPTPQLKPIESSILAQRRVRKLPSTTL
UniProt P06493, whole entry, stated change not applied: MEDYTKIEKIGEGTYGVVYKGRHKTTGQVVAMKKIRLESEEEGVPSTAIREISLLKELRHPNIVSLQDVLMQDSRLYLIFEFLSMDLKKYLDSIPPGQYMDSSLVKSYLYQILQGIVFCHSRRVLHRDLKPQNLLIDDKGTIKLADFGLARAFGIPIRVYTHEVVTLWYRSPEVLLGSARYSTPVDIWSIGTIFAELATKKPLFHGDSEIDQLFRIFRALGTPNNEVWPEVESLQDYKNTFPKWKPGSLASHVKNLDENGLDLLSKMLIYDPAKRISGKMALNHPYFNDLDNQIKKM
UniProt P78362, whole entry, stated change not applied: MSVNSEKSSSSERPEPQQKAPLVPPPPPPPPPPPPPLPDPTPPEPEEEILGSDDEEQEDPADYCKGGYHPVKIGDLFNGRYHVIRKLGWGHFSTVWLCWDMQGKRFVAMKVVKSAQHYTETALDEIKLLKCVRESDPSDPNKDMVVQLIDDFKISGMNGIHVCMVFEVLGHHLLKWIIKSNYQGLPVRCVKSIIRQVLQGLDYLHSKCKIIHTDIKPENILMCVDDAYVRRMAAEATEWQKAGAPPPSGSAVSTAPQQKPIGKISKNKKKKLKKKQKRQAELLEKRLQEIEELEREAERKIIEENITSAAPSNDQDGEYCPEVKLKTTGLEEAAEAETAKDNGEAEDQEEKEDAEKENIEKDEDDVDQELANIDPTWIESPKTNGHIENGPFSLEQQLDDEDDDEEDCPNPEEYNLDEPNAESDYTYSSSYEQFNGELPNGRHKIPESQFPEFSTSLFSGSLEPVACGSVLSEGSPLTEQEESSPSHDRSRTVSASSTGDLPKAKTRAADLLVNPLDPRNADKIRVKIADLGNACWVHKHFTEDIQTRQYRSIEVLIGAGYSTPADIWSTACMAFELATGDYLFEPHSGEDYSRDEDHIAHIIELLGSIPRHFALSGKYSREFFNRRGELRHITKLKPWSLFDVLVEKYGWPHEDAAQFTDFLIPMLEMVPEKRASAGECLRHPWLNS
UniProt Q9H2G2, whole entry, stated change not applied: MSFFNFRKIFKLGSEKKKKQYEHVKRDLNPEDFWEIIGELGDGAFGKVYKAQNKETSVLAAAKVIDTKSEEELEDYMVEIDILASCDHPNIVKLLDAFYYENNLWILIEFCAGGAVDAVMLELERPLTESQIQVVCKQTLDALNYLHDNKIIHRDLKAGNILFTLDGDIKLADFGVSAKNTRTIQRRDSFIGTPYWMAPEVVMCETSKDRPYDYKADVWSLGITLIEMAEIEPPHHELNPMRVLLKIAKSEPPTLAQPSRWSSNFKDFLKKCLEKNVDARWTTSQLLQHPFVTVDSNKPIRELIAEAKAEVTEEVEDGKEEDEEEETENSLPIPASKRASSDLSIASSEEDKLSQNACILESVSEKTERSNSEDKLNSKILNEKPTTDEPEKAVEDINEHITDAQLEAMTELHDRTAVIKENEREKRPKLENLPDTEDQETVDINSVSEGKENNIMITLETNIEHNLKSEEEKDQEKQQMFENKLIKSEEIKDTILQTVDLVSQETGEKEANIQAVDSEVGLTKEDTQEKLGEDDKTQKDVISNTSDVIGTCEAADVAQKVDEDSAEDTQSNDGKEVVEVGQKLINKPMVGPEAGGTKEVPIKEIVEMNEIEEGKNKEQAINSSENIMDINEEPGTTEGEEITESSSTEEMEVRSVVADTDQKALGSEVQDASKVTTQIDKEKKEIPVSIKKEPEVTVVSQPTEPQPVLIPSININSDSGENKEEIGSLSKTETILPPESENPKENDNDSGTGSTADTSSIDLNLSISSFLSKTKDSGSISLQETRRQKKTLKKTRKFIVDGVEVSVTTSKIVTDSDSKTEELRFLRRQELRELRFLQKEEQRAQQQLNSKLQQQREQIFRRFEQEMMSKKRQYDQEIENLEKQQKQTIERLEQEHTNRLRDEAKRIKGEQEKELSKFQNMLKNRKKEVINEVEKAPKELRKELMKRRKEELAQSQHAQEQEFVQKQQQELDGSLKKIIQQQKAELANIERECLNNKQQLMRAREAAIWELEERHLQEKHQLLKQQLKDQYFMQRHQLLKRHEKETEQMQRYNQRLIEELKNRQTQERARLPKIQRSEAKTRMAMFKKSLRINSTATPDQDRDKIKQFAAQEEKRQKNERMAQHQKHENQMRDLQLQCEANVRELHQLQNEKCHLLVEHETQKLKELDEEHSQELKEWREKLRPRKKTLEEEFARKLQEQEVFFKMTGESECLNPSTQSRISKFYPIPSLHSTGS
UniProt P07332, whole entry, stated change not applied: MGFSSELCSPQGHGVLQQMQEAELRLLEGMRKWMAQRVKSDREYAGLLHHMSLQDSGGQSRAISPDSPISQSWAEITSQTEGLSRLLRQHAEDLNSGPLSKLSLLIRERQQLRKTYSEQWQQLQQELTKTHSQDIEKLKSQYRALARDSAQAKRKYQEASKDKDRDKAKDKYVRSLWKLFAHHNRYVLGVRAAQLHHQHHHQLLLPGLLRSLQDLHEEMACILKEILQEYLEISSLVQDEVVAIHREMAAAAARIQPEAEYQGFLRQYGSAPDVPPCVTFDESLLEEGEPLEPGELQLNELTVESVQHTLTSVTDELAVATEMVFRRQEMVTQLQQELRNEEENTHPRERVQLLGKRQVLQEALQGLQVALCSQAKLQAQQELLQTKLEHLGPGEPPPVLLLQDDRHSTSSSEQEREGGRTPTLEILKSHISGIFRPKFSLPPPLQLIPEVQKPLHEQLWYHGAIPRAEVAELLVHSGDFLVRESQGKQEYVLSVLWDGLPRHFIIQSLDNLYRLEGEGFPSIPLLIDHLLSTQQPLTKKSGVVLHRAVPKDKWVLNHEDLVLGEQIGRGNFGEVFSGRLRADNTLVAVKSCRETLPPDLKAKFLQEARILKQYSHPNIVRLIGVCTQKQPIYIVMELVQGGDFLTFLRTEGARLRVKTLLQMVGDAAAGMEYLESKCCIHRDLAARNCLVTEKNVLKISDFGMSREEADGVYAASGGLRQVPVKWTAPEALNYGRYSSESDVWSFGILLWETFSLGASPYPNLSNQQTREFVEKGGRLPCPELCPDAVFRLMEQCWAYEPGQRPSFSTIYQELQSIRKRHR
UniProt Q00534, whole entry, stated change not applied: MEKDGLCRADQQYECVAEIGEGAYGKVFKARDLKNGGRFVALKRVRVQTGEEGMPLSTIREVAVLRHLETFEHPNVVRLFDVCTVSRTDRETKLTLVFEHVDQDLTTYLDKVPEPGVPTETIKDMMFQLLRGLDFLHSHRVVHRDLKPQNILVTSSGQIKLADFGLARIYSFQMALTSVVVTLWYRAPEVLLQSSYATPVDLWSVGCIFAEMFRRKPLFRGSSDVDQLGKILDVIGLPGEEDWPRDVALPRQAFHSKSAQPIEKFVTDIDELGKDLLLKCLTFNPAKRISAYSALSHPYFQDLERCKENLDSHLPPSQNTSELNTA
UniProt P49760, whole entry, stated change not applied: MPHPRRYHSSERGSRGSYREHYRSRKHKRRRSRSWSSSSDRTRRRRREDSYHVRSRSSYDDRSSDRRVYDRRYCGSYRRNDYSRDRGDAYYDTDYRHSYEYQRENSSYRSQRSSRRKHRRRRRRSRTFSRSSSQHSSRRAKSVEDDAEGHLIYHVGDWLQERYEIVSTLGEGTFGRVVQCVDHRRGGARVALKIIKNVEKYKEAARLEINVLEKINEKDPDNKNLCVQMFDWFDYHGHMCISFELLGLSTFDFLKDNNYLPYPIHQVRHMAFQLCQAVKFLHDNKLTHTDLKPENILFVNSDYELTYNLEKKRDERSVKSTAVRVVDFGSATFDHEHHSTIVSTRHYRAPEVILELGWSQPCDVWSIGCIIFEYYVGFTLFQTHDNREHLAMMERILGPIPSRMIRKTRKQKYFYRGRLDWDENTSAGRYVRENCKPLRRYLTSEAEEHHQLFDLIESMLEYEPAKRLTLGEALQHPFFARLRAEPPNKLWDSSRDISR
UniProt Q9Y6R4, whole entry, stated change not applied: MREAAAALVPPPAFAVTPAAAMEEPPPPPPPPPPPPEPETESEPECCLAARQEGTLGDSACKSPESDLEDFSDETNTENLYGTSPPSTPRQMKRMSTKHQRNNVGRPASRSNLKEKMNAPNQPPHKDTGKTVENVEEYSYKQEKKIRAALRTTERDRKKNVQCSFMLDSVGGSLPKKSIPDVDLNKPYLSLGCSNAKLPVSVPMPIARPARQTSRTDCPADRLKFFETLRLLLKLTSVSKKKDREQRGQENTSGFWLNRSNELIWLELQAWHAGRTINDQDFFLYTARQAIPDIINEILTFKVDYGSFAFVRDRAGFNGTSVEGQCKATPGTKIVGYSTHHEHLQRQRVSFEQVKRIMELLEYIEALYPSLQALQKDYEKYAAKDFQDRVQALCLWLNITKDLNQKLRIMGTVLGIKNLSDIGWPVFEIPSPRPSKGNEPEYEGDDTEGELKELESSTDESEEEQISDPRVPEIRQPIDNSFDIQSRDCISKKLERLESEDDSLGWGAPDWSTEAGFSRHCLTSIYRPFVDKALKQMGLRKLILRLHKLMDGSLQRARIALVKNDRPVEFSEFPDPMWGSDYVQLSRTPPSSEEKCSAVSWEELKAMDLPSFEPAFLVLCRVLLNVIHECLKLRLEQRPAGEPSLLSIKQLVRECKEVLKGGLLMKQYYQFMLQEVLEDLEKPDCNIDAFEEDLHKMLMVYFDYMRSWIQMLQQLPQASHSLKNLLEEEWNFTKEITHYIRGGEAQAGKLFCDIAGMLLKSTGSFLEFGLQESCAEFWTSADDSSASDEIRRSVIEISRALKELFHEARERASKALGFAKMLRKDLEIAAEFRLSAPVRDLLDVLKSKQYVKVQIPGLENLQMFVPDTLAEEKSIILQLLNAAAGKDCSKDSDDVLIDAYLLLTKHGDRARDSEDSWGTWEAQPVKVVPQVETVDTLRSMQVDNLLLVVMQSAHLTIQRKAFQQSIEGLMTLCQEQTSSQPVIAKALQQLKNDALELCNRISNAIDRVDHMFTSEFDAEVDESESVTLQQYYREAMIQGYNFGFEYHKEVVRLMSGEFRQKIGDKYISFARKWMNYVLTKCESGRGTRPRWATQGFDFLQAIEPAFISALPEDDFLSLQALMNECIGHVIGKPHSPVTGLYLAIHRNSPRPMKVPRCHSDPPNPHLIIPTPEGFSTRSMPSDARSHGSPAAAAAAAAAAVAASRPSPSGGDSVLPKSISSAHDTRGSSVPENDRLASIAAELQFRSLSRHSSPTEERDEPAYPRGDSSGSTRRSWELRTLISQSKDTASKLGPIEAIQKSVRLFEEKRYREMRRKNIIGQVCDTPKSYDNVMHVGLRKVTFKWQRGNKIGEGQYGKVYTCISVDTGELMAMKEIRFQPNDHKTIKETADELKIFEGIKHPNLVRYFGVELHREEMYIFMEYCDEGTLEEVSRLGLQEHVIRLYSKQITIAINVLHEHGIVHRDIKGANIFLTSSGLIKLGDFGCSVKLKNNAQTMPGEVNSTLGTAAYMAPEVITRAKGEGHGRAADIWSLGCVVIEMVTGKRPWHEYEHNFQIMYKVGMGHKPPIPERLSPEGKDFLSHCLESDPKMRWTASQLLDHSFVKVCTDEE

Tests used:
Assay in all cases: Kinase profiling in a biochemical assay panel (mobility shift assays and ELISA), %-inhibition at 1 μM; selectivity entropy
[1] = molecular target: panel of more than 300 wild-type and mutant kinases (313 kinase panel) (Homo sapiens, UniProt P50750)
[2] = molecular target: panel of more than 300 wild-type and mutant kinases (313 kinase panel) (Homo sapiens, UniProt Q15418)
[3] = molecular target: panel of more than 300 wild-type and mutant kinases (313 kinase panel) (Homo sapiens, UniProt P06493)
[4] = molecular target: panel of more than 300 wild-type and mutant kinases (313 kinase panel) (Homo sapiens, UniProt P78362)
[5] = molecular target: panel of more than 300 wild-type and mutant kinases (313 kinase panel) (Homo sapiens, UniProt Q9H2G2)
[6] = molecular target: panel of more than 300 wild-type and mutant kinases (313 kinase panel) (Homo sapiens, UniProt Q86Z02)
[7] = molecular target: panel of more than 300 wild-type and mutant kinases (313 kinase panel) (Homo sapiens, UniProt P10721)
[8] = molecular target: panel of more than 300 wild-type and mutant kinases (313 kinase panel) (Homo sapiens, UniProt P07332)
[9] = molecular target: panel of more than 300 wild-type and mutant kinases (313 kinase panel) (Homo sapiens, UniProt Q00534)
[10] = molecular target: panel of more than 300 wild-type and mutant kinases (313 kinase panel) (Homo sapiens, UniProt P49760)
[11] = molecular target: T1, panel of more than 300 wild-type and mutant kinases (313 kinase panel) (Homo sapiens, UniProt Q7KZI7)
T1 sequence (Q7KZI7 1-788): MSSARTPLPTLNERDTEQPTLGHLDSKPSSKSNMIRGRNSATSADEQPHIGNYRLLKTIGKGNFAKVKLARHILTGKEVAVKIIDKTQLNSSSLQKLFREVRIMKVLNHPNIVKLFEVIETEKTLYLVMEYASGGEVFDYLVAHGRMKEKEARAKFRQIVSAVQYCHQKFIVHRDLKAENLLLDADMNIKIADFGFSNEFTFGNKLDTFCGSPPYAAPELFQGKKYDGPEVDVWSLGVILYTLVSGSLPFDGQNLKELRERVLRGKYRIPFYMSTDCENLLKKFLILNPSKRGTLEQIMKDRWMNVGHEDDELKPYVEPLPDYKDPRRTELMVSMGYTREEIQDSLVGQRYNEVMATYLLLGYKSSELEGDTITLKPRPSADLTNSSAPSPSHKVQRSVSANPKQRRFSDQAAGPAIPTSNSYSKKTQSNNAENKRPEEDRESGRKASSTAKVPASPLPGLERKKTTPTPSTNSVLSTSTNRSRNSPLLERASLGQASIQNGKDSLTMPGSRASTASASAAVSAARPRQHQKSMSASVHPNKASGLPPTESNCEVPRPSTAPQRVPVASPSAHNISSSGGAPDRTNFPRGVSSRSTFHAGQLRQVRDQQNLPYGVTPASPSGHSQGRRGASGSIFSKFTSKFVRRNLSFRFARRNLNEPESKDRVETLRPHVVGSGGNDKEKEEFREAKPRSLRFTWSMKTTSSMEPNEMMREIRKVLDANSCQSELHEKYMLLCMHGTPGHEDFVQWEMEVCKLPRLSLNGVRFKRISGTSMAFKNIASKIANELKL

[12] = molecular target: T2, panel of more than 300 wild-type and mutant kinases (313 kinase panel) (Homo sapiens, UniProt Q96BR1)
T2 sequence (Q96BR1 1-496): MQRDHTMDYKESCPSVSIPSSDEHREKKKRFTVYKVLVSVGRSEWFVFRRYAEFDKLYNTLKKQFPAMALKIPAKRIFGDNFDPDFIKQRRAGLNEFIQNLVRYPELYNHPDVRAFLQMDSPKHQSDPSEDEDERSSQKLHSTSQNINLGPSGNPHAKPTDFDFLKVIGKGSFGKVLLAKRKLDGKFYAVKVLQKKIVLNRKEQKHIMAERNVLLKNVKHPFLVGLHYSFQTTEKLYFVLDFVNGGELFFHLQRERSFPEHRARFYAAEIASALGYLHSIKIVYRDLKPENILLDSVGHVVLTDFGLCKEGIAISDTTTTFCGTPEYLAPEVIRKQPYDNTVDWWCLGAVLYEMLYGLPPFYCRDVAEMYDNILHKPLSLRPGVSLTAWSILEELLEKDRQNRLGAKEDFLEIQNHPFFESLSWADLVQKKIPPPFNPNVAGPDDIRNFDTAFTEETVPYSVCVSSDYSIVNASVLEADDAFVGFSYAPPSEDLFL

[13] = molecular target: panel of more than 300 wild-type and mutant kinases (313 kinase panel) (Homo sapiens, UniProt Q9Y6R4)
[14] = molecular target: panel of more than 300 wild-type and mutant kinases (313 kinase panel) (Homo sapiens, UniProt Q00526)

Row | SMILES | %-inhibition, CDK9/CycT1 ([1]; 1 µM) | %-inhibition of RSK1 ([2]; 1 µM) | %-inhibition, CDC2/CycB1 ([3]; 1 µM) | %-inhibition of SRPK2 ([4]; 1 µM) | %-inhibition of SLK ([5]; 1 µM) | %-inhibition of HIPK1 ([6]; 1 µM) | %-inhibition of KIT ([7]; 1 µM) | %-inhibition of FES ([8]; 1 µM) | %-inhibition, CDK6/CycD3 ([9]; 1 µM) | %-inhibition, CLK2 ([10]; 1 µM) | %-inhibition of MARK2 ([11]; 1 µM) | %-inhibition of SGK3 ([12]; 1 µM) | %-inhibition of MAP3K4 ([13]; 1 µM) | %-inhibition, CDK3/CycE1 ([14]; 1 µM) | also measured
1 | CNC(=O)c1ccccc1Sc1ccc2c(/C=C/c3ccccn3)n[nH]c2c1 [axitinib] | – | – | – | – | – | – | – | – | – | – | – | – | – | – | %-inhibition, CDK9/CycT1 ([1]; kinase CDK9/CycT1, 1 μM compound): -1.79%; %-inhibition of RSK1 ([2]; kinase RSK1, 1 μM): 49%; %-inhibition, CDC2/CycB1 ([3]; kinase CDC2/CycB1, 1 μM compound): 5%; %-inhibition of SRPK2 ([4]; kinase SRPK2, 1 μM): -4%; %-inhibition of SLK ([5]; kinase SLK, 1 μM): 82%; %-inhibition of HIPK1 ([6]; kinase HIPK1, compound at 1 μM): -6.53%; %-inhibition of KIT ([7]; kinase KIT, compound at 1 μM): 99%; %-inhibition of FES ([8]; kinase FES, compound at 1 μM): 0.247%; %-inhibition, CDK6/CycD3 ([9]; kinase CDK6/CycD3, 1 μM compound): -0.811%; %-inhibition, CLK2 ([10]; kinase CLK2, 1 μM compound): -3.71%; %-inhibition of MARK2 ([11]; kinase MARK2, compound at 1 μM): 78%; %-inhibition of SGK3 ([12]; kinase SGK3, 1 μM): -6%; %-inhibition of MAP3K4 ([13]; kinase MAP3K4, compound at 1 μM): 27%; %-inhibition, CDK3/CycE1 ([14]; kinase CDK3/CycE1, 1 μM compound): -10%
2 | COc1cc2ncnc(Nc3ccc(F)c(Cl)c3)c2cc1OCCCN1CCOCC1 [gefitinib] | 0.25% | 13% | 5.41% | 3.46% | 73% | 5.48% | 36% | 8.5% | 9% | -7% | 16% | 2.35% | -13% | 3% | –
3 | C[C@@H]1CCN(C(=O)CC#N)C[C@@H]1N(C)c1ncnc2[nH]ccc12 [tofacitinib] | -2.14% | 1.49% | -1.16% | -1.66% | 7% | -7.54% | 3.63% | -0.74% | -1.56% | -14% | 41% | -0.183% | -3.74% | -10% | –
